A short description of the data set: Solubility of peptidic cores in water.
With `CC(=O)N[C@@H](CCCCN)C(=O)NCCC(=O)NCCC(=O)N[C@@H](CCCCN)C(=O)NCCC(=O)NCCC(=O)N[C@@H](CSSc1ccccn1)C(N)=O`, the solubility in water result was “sparingly soluble”.

With `CC(C)(C)SSC[C@H](NC(=O)OCC1c2ccccc2-c2ccccc21)C(=O)NCCC(=O)N[C@@H](CCCCN)C(=O)NCCC(=O)N[C@@H](CCCCN)C(=O)NCCC(=O)N[C@@H](CCCCN)C(=O)NCCC(=O)N[C@@H](CCCCN)C(=O)NCCC(=O)N[C@@H](CCCCN)C(=O)NCCC(=O)N[C@@H](CCCCN)C(N)=O`, the solubility in water entry was “freely soluble”.

For the compound `CC(=O)N[C@@H](CCCCN)C(=O)NCCC(=O)NCCC(=O)N[C@@H](CCCCN)C(=O)NCCC(=O)NCCC(=O)N[C@@H](CCCCN)C(=O)NCCC(=O)NCCC(=O)N[C@@H](CCCCN)C(=O)NCCC(=O)NCCC(=O)N[C@@H](CSSc1ccccn1)C(N)=O`, the solubility in water result is reported as “freely soluble”.
